Here are results for 14 compounds from patent publication EP4737450A1 (Longwood Pharmaceuticals (Hangzhou) Co., Ltd, priority 2023, dated 2025).

Protein sequences, listed by entry. Tags and fused reporters are not part of them. Residues count along the entry.
UniProt P03952, 391-638 limits assumed: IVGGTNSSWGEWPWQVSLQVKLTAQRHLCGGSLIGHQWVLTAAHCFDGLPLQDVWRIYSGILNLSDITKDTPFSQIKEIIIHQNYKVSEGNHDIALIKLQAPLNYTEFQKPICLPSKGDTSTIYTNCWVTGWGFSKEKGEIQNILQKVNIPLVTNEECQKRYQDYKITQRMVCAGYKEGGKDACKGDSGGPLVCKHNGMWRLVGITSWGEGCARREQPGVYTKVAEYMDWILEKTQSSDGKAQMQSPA
UniProt P03952, 20-390 partner limits assumed: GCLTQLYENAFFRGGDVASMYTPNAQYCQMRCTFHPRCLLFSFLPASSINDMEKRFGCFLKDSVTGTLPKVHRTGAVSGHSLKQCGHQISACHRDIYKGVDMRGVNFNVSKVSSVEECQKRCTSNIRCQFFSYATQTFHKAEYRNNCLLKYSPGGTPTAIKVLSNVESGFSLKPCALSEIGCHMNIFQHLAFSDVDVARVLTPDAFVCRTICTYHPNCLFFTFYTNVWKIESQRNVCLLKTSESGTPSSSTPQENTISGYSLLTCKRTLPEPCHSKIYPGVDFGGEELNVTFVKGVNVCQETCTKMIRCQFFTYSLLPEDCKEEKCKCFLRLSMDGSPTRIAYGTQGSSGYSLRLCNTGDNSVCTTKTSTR
UniProt P06870, 25-262 limits assumed: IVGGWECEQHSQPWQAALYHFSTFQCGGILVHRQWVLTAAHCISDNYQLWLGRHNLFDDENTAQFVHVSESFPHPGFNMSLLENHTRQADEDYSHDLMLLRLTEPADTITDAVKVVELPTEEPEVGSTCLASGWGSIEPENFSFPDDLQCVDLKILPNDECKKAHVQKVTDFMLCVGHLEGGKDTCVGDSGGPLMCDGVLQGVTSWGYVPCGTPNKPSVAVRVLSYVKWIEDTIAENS
UniProt P03951, 388-625 limits assumed: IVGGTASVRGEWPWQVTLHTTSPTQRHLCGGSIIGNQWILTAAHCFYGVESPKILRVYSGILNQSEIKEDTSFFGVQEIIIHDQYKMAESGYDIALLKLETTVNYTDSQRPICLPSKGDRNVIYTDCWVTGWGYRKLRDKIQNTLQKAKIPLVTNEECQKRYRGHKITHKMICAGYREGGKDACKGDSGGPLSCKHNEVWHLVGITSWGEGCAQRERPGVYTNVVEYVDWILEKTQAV
UniProt P03951, 19-387 partner limits assumed: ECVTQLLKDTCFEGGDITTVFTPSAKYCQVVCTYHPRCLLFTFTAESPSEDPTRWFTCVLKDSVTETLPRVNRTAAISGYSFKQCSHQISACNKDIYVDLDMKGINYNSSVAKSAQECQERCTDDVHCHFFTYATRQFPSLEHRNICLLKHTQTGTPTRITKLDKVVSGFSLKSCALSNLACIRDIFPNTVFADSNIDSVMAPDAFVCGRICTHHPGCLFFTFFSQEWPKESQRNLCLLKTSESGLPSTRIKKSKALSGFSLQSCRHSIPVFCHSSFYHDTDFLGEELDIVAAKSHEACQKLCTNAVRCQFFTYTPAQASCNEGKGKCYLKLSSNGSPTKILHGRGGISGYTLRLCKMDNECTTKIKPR

Test [1] addresses plasma kallikrein (PKa) (Homo sapiens, UniProt P03952). In words: Inhibitory activity against plasma kallikrein in vitro (fluorescence intensity enzyme assay, Pro-Phe-Arg-AMC substrate). Particulars: read-out: PKa IC50. It counts as biochemical.
In test [2] the target is KLK1 (Homo sapiens, UniProt P06870). In words: Inhibitory activity against KLK1 in vitro (biochemical assay). To be noted: read-out: KLK1 IC50; values given in µM.
The target of test [3] is FXIa (Homo sapiens, UniProt P03951). In words: Inhibitory activity against FXIa in vitro (biochemical assay). Particulars: read-out: FXIa IC50; values given in µM.

Consider `Nc1cc2c(cn1)[C@H](NC(=O)c1ncn(Cc3ccc(Cn4ccccc4=O)cc3)n1)CO2`, for which the IC50 (as a rule, the concentration needed to halve the response being measured) in test [1] was 63.7 nM.
As for `Cn1cnc2c1CCC2NC(=O)c1ncn(Cc2ccc(Cn3ccccc3=O)cc2)n1` (centres unmarked), the IC50 in test [2] was more than 10 µM; in test [1] it was 10.3 nM; in test [3] it was more than 10 µM.
On to `COc1ccnc(CNC(=O)c2cn(Cc3ccc(Cn4ccccc4=O)cc3)nc2CN2C(=O)C3CCC2C3)c1F` (centres unmarked), for which the IC50 in test [1] amounted to 2.87 nM.
Regarding `COCc1nn(Cc2ccc(CN3CC4CCC3C4)cc2)cc1C(=O)NCc1nccc(OC)c1F` (single isomer, unassigned) [149], the half-maximal inhibitory concentration (IC50) in test [1] was 481 nM.
The same measure, in the same setting: with `COc1ccc(F)c(CNC(=O)c2cn(Cc3ccc(Cn4cc(F)ccc4=O)cc3)nc2C2CC2(F)F)c1F` (single isomer, unassigned) [287] the figure was 4.54 nM; with `Nc1cc2c(cn1)C(NC(=O)c1ncn(Cc3ccc(Cn4ccccc4=O)cc3)n1)CO2` (centres unmarked), more than 100 nM; with `O=C(NCc1nccc(C2CC2)c1F)c1cn(Cc2ccc(Cn3ccccc3=O)cc2)nc1C1CC1(F)F` (single isomer, unassigned) [267], 23 nM.
On the same count and under the same terms, with `COCc1nn(Cc2ccc(CN3CC4CCC3C4)cc2)cc1C(=O)NCc1nccc(OC)c1F` (single isomer, unassigned) [150] the figure was 979 nM.
Turning to `O=C(NCc1nccc(C2CC2)c1F)c1cn(Cc2ccc(Cn3ccccc3=O)cc2)nc1C1CC1(F)F` (single isomer, unassigned) [261], the values for the IC50 in test [2], in test [1] and in test [3] were more than 10 µM, 0.59 nM and more than 10 µM, respectively.
Turning to `Cn1cnc2c1CC[C@H]2NC(=O)c1ncn(Cc2ccc(Cn3ccccc3=O)cc2)n1`, the IC50 in test [1] was determined as 12.9 nM.
Still for that read-out and setting: as for `O=C(NCc1nccc(N2CC(F)(F)C2)c1F)c1cn(Cc2ccc(Cn3ccccc3=O)cc2)nc1C1COC1`, the figure is 182 nM; as for `COCc1nn(Cc2ccc(CN3C4CCC3CC4)cc2)cc1C(=O)NCc1nccc(OC)c1F`, more than 100 nM; as for `COc1ccnc(CNC(=O)c2cnn(Cc3ccc(CN4C(=O)C5CCC4C5)cc3)c2)c1F` (centres unmarked), more than 100 nM.
For the compound `COc1ccc(F)c(CNC(=O)c2cn(Cc3ccc(Cn4cc(F)ccc4=O)cc3)nc2C2CC2(F)F)c1F` (single isomer, unassigned) [282], the figures for the IC50 in test [2], in test [1] and in test [3] were more than 10 µM, 2.36 nM and more than 10 µM, respectively.
